The text below walks through data of EP4552657A1, “RADIOPHARMACEUTICAL COMPLEXES AND COMBINATIONS” (priority 2023, dated 2025).

For data set [1], the system named is HER2-expressing breast carcinoma xenograft model JIMT-1. The conditions noted are these: 500 kBq/kg IV. How it is done: Animals were pre-treated with 200 µg/mouse unspecific IgG2a antibody 24 h prior to hot dosing.
In data set [2] the test system is ZR-75-1 breast cancer model. Kind of data set: In vivo antitumor efficacy in ZR-75-1 model. The arrangement: species or system mice. As for the experimental part: The antitumor efficacy of ^225Ac-Macropa-Trastuzumab was assessed in the ZR-75-1 breast cancer model. Female NMRI nu/nu mice were implanted s.c. with estradiol pellets and were inoculated subcutaneously with 5×10^6 ZR-75-1 cells 1-2 days later.
Animals were randomized into treatment groups at an average tumor size of 169 mm^3 (n=12) and treatment was started.

For a further data set, the system named is JIMT-1 and SKOV-3 cells. The conditions noted are these: 20 kBq/µg; 50 µg/ml Trastuzumab added 2 hours before; 6 days.
For a further data set, the system named is JIMT-1 cells. The conditions noted are these: 20 kBq/µg; 30 min, 2 hrs and 18 hrs of exposure; viability at day 6; vs isotype control.
In data set [3] the test system is HER2-expressing cell lines JIMT-1, MCF-7, T-47D and ZR-75-1. The conditions noted are these: 2, 10 and 20 kBq/µg; 6 days; vs isotype control at 20 kBq/µg.

For the substance “Ac-225-macropa-Trastuzumab: Ac-225 macropa complex bound to the anti-HER2 monoclonal antibody Trastuzumab via a Lysine residue”, in data set [1] (all timepoints (24, 72, 168, 336 hours)), the “uptake in liver, spleen, and kidneys” value is on record as “less than 5 %ID/g”. Moreover, in data set [1] (all timepoints), the uptake in femur result is recorded as “less than 2 %ID/g”. Further, the “tumor uptake and retention” value in data set [1] (over 336 h) was “high tumor uptake and retention over 336 h”. In data set [2] (mouse, in vivo), the anti-tumor efficacy result was “very strong and durable anti-tumor efficacy with complete remissions until end of the study in the higher dose group (250 kBq/kg)”. Also, the “cytotoxicity and its inhibition by Trastuzumab” value in the data set with JIMT-1 and SKOV-3 cells was “strong cytotoxicity was achieved which was totally inhibited in the presence of cold Trastuzumab”. Also, the cytotoxicity result with JIMT-1 cells is “strong and specific cytotoxicity”. Further, the specificity of cytotoxicity entry in data set [3] is recorded as “increasing specificity with increasing specific activity”.

For “fam-trastuzumab deruxtecan-nxki [Enhertu, reference compound]”, the anti-tumor efficacy result in data set [2] (225Ac conjugate 125 or 250 kBq/kg day 0 and 28 i.v., Enhertu 2.7 or 5.4 mg/kg day 0 and 21 i.v.) is on record as “onset of tumor regrowth at -day 50”.
